The subject of the assay is DHBV. Description: anti-DHBV test in ducks (serum DHBV DNA dot blot). It counts as in vivo, DHBV in Peking (Beijing) ducks. Particulars: for DHBV DNA, grayness of the dot: X ± SD, n = 7; for viraemia / DHBV DNA, dose and time dependence (words): 5, 12.5, 50 mg/kg/day. How it is done:
One-day-old ducklings were infected with a 200 μl intravenous injection of DHBV-positive serum containing 10^11 viral genome equivalents per milliliter. Treatment began when ducklings were 7 days old. A total 89 seven-day-old viraemic ducks were distributed at random into five groups. Three groups were administered for 14 days with compound A at the dosage of 5, 12.5, and 50 mg.kg of body weight^-1.day^-1, given orally in two equal (morning and evening) dose dissolved in normal saline (NS). Other two groups were treated with NS and Acyelorvir (ACV) at the dosage of 50 mg.kg of body weight^-1.day^-1 instead of compound A respectively. Post-treatment follow-up was carried over a period of 5 days. Blood samples were obtained repectively from the leg vein of all ducks and stored at -70° C. after serum separation, prior to treatment, weekly during the treatment, and for 5 days after cessation of treatment. They were screened for presence of DHBV DNA by dot blot hybridization.
DHBV DNA in serum was analyzed by molecular hybridization using full length DHBV DNA clones in PB325. The DHBV DNA insert was purified by agarose gel electrophoresis after digestion with EcoRI. The DHBV DNA was radiolabeled with α^32 P-dCTP random oligopriming with Klenow fragment. Dot blot hybridization was carried out by the method of Scotto et al. Briefly, an aliquot (200 μl) serum was spotted onto a nylon membrane (Hybond-N, Amersham International, England) in dot blot manifold and denatured with 0.5 M NaOH--NaCl at room temperature for 30 min. Each spotted sample was neutralized in 1M Tris.HCl-1.5M NaCl (pH8.0). The DNA on the membrane was fixed by heating at 80° C. for 2 h, and prehybridization at 37° C. overnight in 50% formamide, 5×Denhardt's, 6×SSC,[…], 0.5% SDS and 10 mg/ml of calf thymus DNA. Hybridization was initiated by adding DHBV [^32 P] DNA probes at 10^6 cpm/ml at the same prehybridization conditions overnight. The membrane was washed in 3×SSC-0.1% SDS at room temperature, 42° C. and 65° C. for 10 min respectively. After hybridization the membranes were air-dried and exposed for periods of up to 14 days at -70° C. with Kodak film with an enhancer screen. The amount of viral DNA were assayed by both densitometry and image analysis of autoradiographic membranes.

Consider `O=C(/C=C/c1ccc(O)c(O)c1)OC1CC(OC(=O)/C=C/c2ccc(O)c(O)c2)(C(=O)O)CC(O)C1O` (stereo not shown) [Compound A, 1,5-di-O-caffeoylquinic acid], for which the “viraemia / DHBV DNA, dose and time dependence (words)” value was “dose- and time-dependent inhibitory effect”. Moreover, for the setting “5 mg/kg, P5 (day 5 after withdrawal)”, the “DHBV DNA, grayness of the dot” value worked out at 2.5 ± 1.5 K Grayness. Also, the “DHBV DNA, grayness of the dot” value (5 mg/kg, day 0 (before treatment), oral) amounted to 3.4 ± 1.2 K Grayness. Further, the “DHBV DNA, grayness of the dot” value (5 mg/kg, day 7, oral) stood at 2.7 ± 0.9 K Grayness. In addition, the “DHBV DNA, grayness of the dot” value (5 mg/kg, day 14, oral) is reported as 1.3 ± 1.3 K Grayness. For the same compound, under “12.5 mg/kg, P5 (day 5 after withdrawal)”, the “DHBV DNA, grayness of the dot” value amounted to 1.9 ± 1.4 K Grayness. Also, the “DHBV DNA, grayness of the dot” value (12.5 mg/kg, day 0 (before treatment), oral) is on record as 2.6 ± 1.9 K Grayness. Further, under “12.5 mg/kg, day 7, oral”, the “DHBV DNA, grayness of the dot” value is recorded as 1.3 ± 1.3 K Grayness. Also, the “DHBV DNA, grayness of the dot” value (12.5 mg/kg, day 14, oral) came to 0.6 ± 1.1 K Grayness. The “DHBV DNA, grayness of the dot” value (50 mg/kg, P5 (day 5 after withdrawal)) turned out to be 0.5 K Grayness. Besides, the “DHBV DNA, grayness of the dot” value (50 mg/kg, day 0 (before treatment), oral) turned out to be 4.0 K Grayness. In addition, under “50 mg/kg, day 7, oral”, the “DHBV DNA, grayness of the dot” value is given as 1.3 K Grayness. The “DHBV DNA, grayness of the dot” value (50 mg/kg, day 14, oral) amounted to 0.5 K Grayness. Moreover, for the setting “50 mg/kg/day, 4 days after withdrawal, vs NS and ACV”, the “viraemia after withdrawal” value is “significantly lower than those after NS and ACV”. In addition, the “DHBV DNA after withdrawal” value (50 mg/kg/day, 5 days after withdrawal, vs NS and ACV) is “significantly lower than those after NS and ACV”. Besides, the “viraemia / DHBV DNA, dose and time dependence (words)” value (listed as compound A) was “decreased in dose- and time-dependently manner”.

The values are drawn from patent publication US6331565A, “Dicaffeoylquinic acid for treating hepatitis B and the diseases associated with retrovirus, and the new caffeoylquinic acid derivatives” (Institute of Radiation Medicine Academy of Military Medical …, priority 1996, dated 2001).
